{"source": "paper PMC8305873", "about": "“Design and heterologous expression of a novel dimeric LL37 variant in Pichia pastoris” (Microbial Cell Factories, 2021)", "test_system": "human red blood cells", "assay": "Hemolytic activity assay", "assay_type": "cell-based", "conditions": "at the highest peptide concentration (128 μM), 37 °C 1 h, 0.1% Triton X-100 = 100%", "data": [{"smiles": "CC[C@H](C)[C@H](NC(=O)CN)C(=O)NCC(=O)N[C@@H](C)C(=O)N[C@H](C(=O)N[C@@H](CC(C)C)C(=O)N[C@@H](CCCCN)C(=O)N[C@H](C(=O)N[C@@H](CC(C)C)C(=O)N[C@H](C(=O)N[C@H](C(=O)NCC(=O)N[C@@H](CC(C)C)C(=O)N1CCC[C@H]1C(=O)N[C@@H](C)C(=O)N[C@@H](CC(C)C)C(=O)N[C@H](C(=O)N[C@@H](CO)C(=O)N[C@@H](Cc1c[nH]c2ccccc12)C(=O)N[C@H](C(=O)N[C@@H](CCCCN)C(=O)N[C@@H](CCCNC(=N)N)C(=O)N[C@@H](CCCCN)C(=O)N[C@@H](CCCNC(=N)N)C(=O)N[C@@H](CCC(N)=O)C(=O)N[C@@H](CCC(N)=O)C(N)=O)[C@@H](C)CC)[C@@H](C)CC)[C@@H](C)O)[C@@H](C)O)C(C)C)C(C)C", "note": "[melittin, reference compound]", "values": [{"measurement": "hemolysis (blood cells destroyed)", "result": 91, "unit": "%"}]}]}
